Reference: patent US5821239A (priority 1996, dated 1998)

Biological target: Brain AChE (acetylcholinesterase, rat striatum) (Rattus norvegicus, UniProt P37136)
Settings: read-out: Inhibitory Concentration Brain AChE; rat striatum homogenate; acetylthiocholine 5 mM final, DTNB 0.25 mM; pH 7.2; 10 min preincubation at 37° C.

SMILES	IC50
CN(C)C(=O)Oc1cnccc1N	13.4 µM
CN(C)C(=O)Oc1cnccc1N=CN1CCCCC1	47.1 µM
CN(C)C=Nc1ccncc1OC(=O)N(C)C	83 µM
CN(C)C(=O)Oc1cnccc1N=CN1CCCC1	9.38 µM
